Measured affinities in a library of Ab-14 light chain variants

Binding partner: SARS-CoV-2 spike HR2 peptide, sequence PDVDLGDISGINAS.

Parent scFv Ab-14: VH joined to VL by the linker GGGGSGGGGSGGGGS. Changes lie in the light chain CDRs alone.
VH: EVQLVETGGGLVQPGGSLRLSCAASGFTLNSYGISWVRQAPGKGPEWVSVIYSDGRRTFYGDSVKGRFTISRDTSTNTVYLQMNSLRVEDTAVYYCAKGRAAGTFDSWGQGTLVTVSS
VL: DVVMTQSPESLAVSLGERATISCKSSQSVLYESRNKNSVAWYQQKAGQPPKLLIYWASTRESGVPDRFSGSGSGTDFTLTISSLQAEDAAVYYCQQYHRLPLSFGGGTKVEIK

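Phage display of a naive human antibody library on the peptide gave the parent. Library AAYL50 holds single substitutions and randomly drawn double and triple substitutions in the CDRs. AlphaSeq pools MATa yeast showing the antibodies with MATalpha yeast showing the peptide. Pairs that bind mate more often; barcode pairs of the diploids are counted by sequencing. Each replicate has its own calibration line, from reference interactions of the BCL2 family. The assay was run in three technical replicates.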

Positions count from residue 1 of the parent VL; W56S puts S in place of W. The read-out is the apparent dissociation constant on a log10 scale (nM): the lower, the stronger. A mean of the replicates is given; it leaves out those without a signal. Where no diploid with the target was found in any replicate, the entry reads "nd": below detection, most likely a poor binder, though not proof of it.

changes	mean log10 Kd (nM)	detected
W56S+A57G+R60H	0.61	3 of 3
A40V+P101G	nd	0 of 3
E32M+V39L+W56D	-0.09	3 of 3
S33R+T59G+S62N	nd	0 of 3
S25I+Q95M+L100H	0.67	3 of 3
R34V+A57M+L100I	1.24	3 of 3
V29P+Y31G+Y97C	0.54	3 of 3
K24A+S33Q+R99K	1.52	3 of 3
S38E+S58I+P101N	nd	0 of 3
R34C+W56G+R60L	0.30	3 of 3
Q27C+H98I+R99M	1.36	3 of 3
S28L+K36R+R60Q	3.55	1 of 3
K24G+V39T+Q95G	6.09	2 of 3
L30Q+R60C+S103F	4.12	3 of 3
T59N+S103R	3.48	2 of 3
Q27P+L30C+Q96C	1.96	1 of 3
S62Y+P101W+S103K	nd	0 of 3
S26F+N37H+S103P	1.84	3 of 3
Y31S+S58R+S62V	1.19	3 of 3
A40N+R60V+Q95P	4.58	2 of 3
Y31K+V39M+S103K	2.76	3 of 3
V29E+A40C+S62G	3.58	1 of 3
K36F+S38T	3.21	3 of 3
K36L+Y97K+S103V	nd	0 of 3
S28K+K36I	1.43	3 of 3
N35Y+L102I	1.24	3 of 3
K24F+S58F+R99G	nd	0 of 3
V29T+N35P+A40R	nd	0 of 3
R34K+H98D	0.89	3 of 3
Y31A+N35K+K36W	0.73	3 of 3
R34N+A40W+S62F	nd	0 of 3
K24H+S33V+T59Q	nd	0 of 3
E32H+N37C+Q95H	4.37	1 of 3
Q27Y+N37H+Q96L	2.23	3 of 3
K24Y+N37A+Y97V	3.85	1 of 3
K24M+S38I+Y97L	nd	0 of 3
Y31P+K36V+R60P	nd	0 of 3
E61T+L102M	3.68	3 of 3
S38C+W56P+L100Y	nd	0 of 3
Y31N+T59S+Y97A	3.65	3 of 3
N37F+A57M+L100Q	2.45	3 of 3
K36P+N37E+R60C	4.09	2 of 3
N35R+V39D+S58V	4.72	3 of 3
Q27N+V29P+L102G	2.69	3 of 3
S26M+W56A+S62F	0.00	3 of 3
S58L+R60H+S62H	nd	0 of 3
R34W+N35F+W56A	0.24	3 of 3
A57Y+Q96G+H98R	nd	0 of 3
V29A+E32F+L102V	3.39	3 of 3
V29H+N37K+T59A	2.78	3 of 3
K24L+N35M+Q95A	4.61	2 of 3
S26M+A40N+S103R	4.53	1 of 3
A57Q+S62D+S103N	nd	0 of 3
S26P+R60A+S62T	3.60	1 of 3
V29D+E32F+T59E	0.45	3 of 3
T59S+H98G+S103Y	nd	0 of 3
A40T+Q95L+Q96Y	4.31	2 of 3
L30R+A40N	nd	0 of 3
Y31I+T59P+P101D	4.09	3 of 3
L30T+N37A+Y97L	1.05	3 of 3
S28A+Y31D+K36F	0.58	3 of 3
S33Y+T59K+L100Q	3.43	1 of 3
Q27G+E32P+Y97S	0.90	3 of 3
Q27I+A40I+L100V	4.94	2 of 3
T59K+Y97I+L102T	0.93	3 of 3
K24V+K36P+A40F	4.05	2 of 3
R34S+A40N+W56F	4.08	2 of 3

Extract of 9 entries:

| changes | mean log10 Kd (nM) | detected |
|---|---|---|
| R34W+N35F+W56A | 0.24 | 3 of 3 |
| Q27C+H98I+R99M | 1.36 | 3 of 3 |
| T59N+S103R | 3.48 | 2 of 3 |
| S26M+A40N+S103R | 4.53 | 1 of 3 |
| L30T+N37A+Y97L | 1.05 | 3 of 3 |
| R34K+H98D | 0.89 | 3 of 3 |
| T59S+H98G+S103Y | nd | 0 of 3 |
| Y31K+V39M+S103K | 2.76 | 3 of 3 |
| N37F+A57M+L100Q | 2.45 | 3 of 3 |

Empty control strains, which show no peptide, gave a signal in 18% of pairings with library AAYL50; the median was 4.19 and 95% of these signals were weaker than 2.99. No background was subtracted.

The measurements come from Engelhart et al. 2022 (doi:10.1038/s41597-022-01779-4) through the FLAb antibody collection.